Amino acid sequences for entries named in this document (tags omitted).
UniProt P01112, whole entry: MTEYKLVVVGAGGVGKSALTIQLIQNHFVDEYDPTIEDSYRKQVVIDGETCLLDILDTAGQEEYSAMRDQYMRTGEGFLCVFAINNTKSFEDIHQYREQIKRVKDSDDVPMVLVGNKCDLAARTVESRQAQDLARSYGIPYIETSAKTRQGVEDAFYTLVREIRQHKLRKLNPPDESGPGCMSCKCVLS
UniProt P01111, whole entry: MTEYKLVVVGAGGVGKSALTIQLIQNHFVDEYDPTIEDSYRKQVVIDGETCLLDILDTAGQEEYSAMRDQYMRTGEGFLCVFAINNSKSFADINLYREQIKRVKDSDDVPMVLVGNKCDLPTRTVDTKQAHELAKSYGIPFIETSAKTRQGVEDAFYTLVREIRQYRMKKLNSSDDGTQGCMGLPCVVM

In patent US20250230193A1, “CYCLIC COMPOUND HAVING SELECTIVE KRAS INHIBITORY EFFECT ON HRAS AND NRAS” (CHUGAI SEIYAKU KABUSHIKI KAISHA, priority 2022, published 2025):

Experiments:
[1] = molecular target: GDP-bound HRAS wild-type protein (Homo sapiens, UniProt P01112); assay: Binding to HRAS by surface plasmon resonance (SPR), Single Cycle Kinetics; settings: KD ratio class
[2] = molecular target: GDP-bound NRAS wild-type protein (Homo sapiens, UniProt P01111); assay: Binding to NRAS by surface plasmon resonance (SPR), Single Cycle Kinetics; settings: KD ratio class

Structure (SMILES) | HRAS/KRAS (ratio of KD value for GDP-bound HRAS wild-type protein to KD value for KRAS) [1] | NRAS/KRAS (ratio of KD value for GDP-bound NRAS wild-type protein to KD value for KRAS) [2]
CC[C@H](C)[C@@H]1NC(=O)[C@H](CC2CC2)N(C)C(=O)C[C@@H](C(=O)N(C)C)N(C)C(=O)[C@H](C2CCCC2)N(C)C(=O)C2(CCCC2)NC(=O)[C@@H]2CC(F)(F)CN2C(=O)[C@H](CCc2cc(F)c(C(F)(F)F)c(F)c2)NC(=O)CN(C)C(=O)[C@H](Cc2ccc(C(F)(F)F)cc2)N2CC/C=C\C[C@@H](C2=O)N(C)C(=O)CN(C)C1=O | A (a compound having 10 or more and less than 20 is denoted as A) | A (a compound having 10 or more and less than 20 is denoted as A)
CC[C@H](C)[C@@H]1NC(=O)[C@H](CC)N(C)C(=O)C[C@@H](C(=O)N(C)C)N(C)C(=O)[C@H](C2CCCC2)N(C)C(=O)C2(CCCC2)NC(=O)[C@@H]2CCCN2C(=O)[C@H](CCc2cc(F)c(C(F)(F)F)c(F)c2)NC(=O)CN(C)C(=O)[C@H](Cc2ccc(C(F)(F)F)cc2)N2CC/C=C\C[C@@H](C2=O)N(C)C(=O)CN(C)C1=O | B (a compound having 3 or more and less than 10 is denoted as B) | A (a compound having 10 or more and less than 20 is denoted as A)
CCO[C@@H]1C[C@H]2C(=O)NC3(CCC3)C(=O)N(C)[C@@H](C3CCCC3)C(=O)N(C)[C@H](C(=O)N3CCCC3)CC(=O)N(C)[C@@H](CC)C(=O)N[C@@H]([C@@H](C)CC)C(=O)N(C)CC(=O)N(C)[C@H]3C/C=C\CCN(C3=O)[C@@H](CC3CCCCC3)C(=O)N(C)CC(=O)N[C@@H](CCc3cc(F)c(C(F)(F)F)c(F)c3)C(=O)N2C1 | A (a compound having 10 or more and less than 20 is denoted as A) | AA (a compound having 20 or more is denoted as AA)
CCO[C@@H]1C[C@H]2C(=O)NC3(CCC3)C(=O)N(C)[C@@H](C3CCCC3)C(=O)N(C)[C@H](C(=O)N(C)C)CC(=O)N(C)[C@@H](CC3CC3)C(=O)N[C@@H]([C@@H](C)CC)C(=O)N(C)CC(=O)N(C)[C@H]3C/C=C\CCN(C3=O)[C@@H](Cc3ccc(F)cc3)C(=O)N(C)CC(=O)N[C@@H](CCc3cc(F)c(C(F)(F)F)c(F)c3)C(=O)N2C1 | B (a compound having 3 or more and less than 10 is denoted as B) | A (a compound having 10 or more and less than 20 is denoted as A)
CCO[C@@H]1C[C@H]2C(=O)NC3(CCC3)C(=O)N(C)[C@@H](C3CCCC3)C(=O)N(C)[C@H](C(=O)N(C)C)CC(=O)N(C)[C@@H](CSC)C(=O)N[C@@H]([C@@H](C)CC)C(=O)N(C)CC(=O)N(C)[C@H]3C/C=C\CCN(C3=O)[C@@H](CC3CCC(F)(F)CC3)C(=O)N(C)CC(=O)N[C@@H](CCc3cc(F)c(C(F)(F)F)c(F)c3)C(=O)N2C1 | A (a compound having 10 or more and less than 20 is denoted as A) | A (a compound having 10 or more and less than 20 is denoted as A)
CCO[C@@H]1C[C@H]2C(=O)NC3(CCC3)C(=O)N(C)[C@@H](C3CCCC3)C(=O)N(C)[C@H](C(=O)N(C)C)CC(=O)N(C)[C@@H](CC(C)C)C(=O)N[C@@H]([C@@H](C)CC)C(=O)N(C)CC(=O)N(C)[C@H]3C/C=C\CCN(C3=O)[C@@H](CC3CCCCC3)C(=O)N(C)CC(=O)N[C@@H](CCc3cc(F)c(C(F)(F)F)c(F)c3)C(=O)N2C1 | A (a compound having 10 or more and less than 20 is denoted as A) | A (a compound having 10 or more and less than 20 is denoted as A)
CCO[C@@H]1C[C@H]2C(=O)NC3(CC(F)(F)C3)C(=O)N(C)[C@@H](C(CC)CC)C(=O)N(C)C(C(C)C)CC(=O)N(C)[C@@H](CC)C(=O)N[C@@H]([C@@H](C)CC)C(=O)N(C)CC(=O)N(C)[C@H]3C/C=C\CCN(C3=O)[C@@H](Cc3ccc(C(F)(F)F)cc3)C(=O)N(C)CC(=O)N[C@@H](CCc3cc(F)c(C(F)(F)F)c(F)c3)C(=O)N2C1 (some centres unmarked) | A (a compound having 10 or more and less than 20 is denoted as A) | A (a compound having 10 or more and less than 20 is denoted as A)
CCO[C@@H]1C[C@H]2C(=O)NC3(CCC3)C(=O)N(C)[C@@H](C(CC)CC)C(=O)N(C)[C@H](C(=O)N(C)C)CC(=O)N(C)[C@@H](CC3CCCC3)C(=O)N[C@@H]([C@@H](C)CC)C(=O)N(C)CC(=O)N(C)[C@H]3C/C=C\CCN(C3=O)[C@@H](Cc3ccc(C(F)(F)F)cc3)C(=O)N(C)CC(=O)N[C@@H](CCc3ccc4sccc4c3)C(=O)N2C1 | A (a compound having 10 or more and less than 20 is denoted as A) | AA (a compound having 20 or more is denoted as AA)
CCO[C@@H]1C[C@H]2C(=O)NC3(CCC3)C(=O)N(C)[C@@H](C3CCCC3)C(=O)N(C)[C@H](C(=O)N3CCCC3)CC(=O)N(C)[C@@H](CC(C)C)C(=O)N[C@@H]([C@@H](C)CC)C(=O)N(C)CC(=O)N(C)[C@H]3C/C=C\CCN(C3=O)[C@@H](Cc3ccc(C(F)(F)F)cc3)C(=O)N(C)CC(=O)N[C@@H](CCc3cc(F)c(C(F)(F)F)c(F)c3)C(=O)N2C1 | A (a compound having 10 or more and less than 20 is denoted as A) | AA (a compound having 20 or more is denoted as AA)
CC[C@H](C)[C@@H]1NC(=O)[C@H](CC2CC2)N(C)C(=O)C[C@@H](C(=O)N(C)C)N(C)C(=O)[C@H](C2CCCC2)N(C)C(=O)C2(CC(C)(C)C2)NC(=O)[C@@H]2C[C@@H](F)CN2C(=O)[C@H](CCc2cc(F)c(C(F)(F)F)c(F)c2)NC(=O)CN(C)C(=O)[C@H](Cc2ccc(C(F)(F)F)cc2)N2CC/C=C\C[C@@H](C2=O)N(C)C(=O)CN(C)C1=O | A (a compound having 10 or more and less than 20 is denoted as A) | A (a compound having 10 or more and less than 20 is denoted as A)
CC[C@H](C)[C@@H]1NC(=O)[C@H](CC2CC2)N(C)C(=O)C[C@@H](C(=O)N2CCCC2)N(C)C(=O)[C@H](C2CCCC2)N(C)C(=O)C2(CCC2)NC(=O)[C@@H]2CC(F)(F)CN2C(=O)[C@H](CCc2cc(F)c(C(F)(F)F)c(F)c2)NC(=O)CN(C)C(=O)[C@H](Cc2ccc(C(F)(F)F)cc2)N2CC/C=C\C[C@@H](C2=O)N(C)C(=O)CN(C)C1=O | A (a compound having 10 or more and less than 20 is denoted as A) | AA (a compound having 20 or more is denoted as AA)
CCO[C@@H]1C[C@H]2C(=O)NC3(CCC3)C(=O)N(C)[C@@H](C3CCCC3)C(=O)N(C)[C@H](C(=O)N(C)C)CC(=O)N(C)[C@@H](CC(C)C)C(=O)N[C@@H]([C@@H](C)CC)C(=O)N(C)CC(=O)N(C)[C@H]3C/C=C\CCN(C3=O)[C@@H](CC3CCC(F)(F)CC3)C(=O)N(C)CC(=O)N[C@@H](CCc3cc(F)c(C(F)(F)F)c(F)c3)C(=O)N2C1 | A (a compound having 10 or more and less than 20 is denoted as A) | A (a compound having 10 or more and less than 20 is denoted as A)
CCO[C@@H]1C[C@H]2C(=O)NC3(CC(F)(F)C3)C(=O)N(C)[C@@H](C3CCCC3)C(=O)N(C)[C@H](C(=O)N(C)C)CC(=O)N(C)[C@@H](CC)C(=O)N[C@@H]([C@@H](C)CC)C(=O)N(C)CC(=O)N(C)[C@H]3C/C=C\CCN(C3=O)[C@@H](Cc3ccc(C(F)(F)F)cc3)C(=O)N(C)CC(=O)N[C@@H](CCc3cc(F)c(C(F)(F)F)c(F)c3)C(=O)N2C1 | A (a compound having 10 or more and less than 20 is denoted as A) | A (a compound having 10 or more and less than 20 is denoted as A)
CCO[C@@H]1C[C@H]2C(=O)NC3(CCC3)C(=O)N(C)[C@@H](C3CCCC3)C(=O)N(C)[C@H](C(=O)N(C)C)CC(=O)N(C)[C@@H](CC)C(=O)N[C@@H]([C@@H](C)CC)C(=O)N(C)CC(=O)N(C)[C@H]3C/C=C\CCN(C3=O)[C@@H](CC3CCC(F)(F)CC3)C(=O)N(C)CC(=O)N[C@@H](CCc3cc(F)c(C(F)(F)F)c(F)c3)C(=O)N2C1 | A (a compound having 10 or more and less than 20 is denoted as A) | A (a compound having 10 or more and less than 20 is denoted as A)
CC[C@H](C)[C@@H]1NC(=O)[C@H](CC2CC2)N(C)C(=O)C[C@@H](C(=O)N(C)C)N(C)C(=O)[C@H](C2CCCC2)N(C)C(=O)C2(CCC2)NC(=O)[C@@H]2C[C@H](C)CN2C(=O)[C@H](CCc2cc(F)c(C(F)(F)F)c(F)c2)NC(=O)CN(C)C(=O)[C@H](Cc2ccc(C(F)(F)F)cc2)N2CC/C=C\C[C@@H](C2=O)N(C)C(=O)CN(C)C1=O | B (a compound having 3 or more and less than 10 is denoted as B) | A (a compound having 10 or more and less than 20 is denoted as A)
CCO[C@@H]1C[C@H]2C(=O)NC3(CCC3)C(=O)N(C)[C@@H](C3CCCC3)C(=O)N(C)C(C(C)C)CC(=O)N(C)[C@@H](CC)C(=O)N[C@@H]([C@@H](C)CC)C(=O)N(C)CC(=O)N(C)[C@H]3C/C=C\CCN(C3=O)[C@@H](Cc3ccc(C(F)(F)F)cc3)C(=O)N(C)CC(=O)N[C@@H](CCc3cc(F)c(C(F)(F)F)c(F)c3)C(=O)N2C1 (some centres unmarked) | B (a compound having 3 or more and less than 10 is denoted as B) | A (a compound having 10 or more and less than 20 is denoted as A)
